In patent publication US20210015884A1 (priority 2018, published 2021):

System: m^6A levels in 293 cells
Assay: m6A levels in 293 cells transfected with oligonucleotides
Settings: 100 nM oligo, 72 hrs after transfection

5′ GG/i2FA/CUGG/i2FA/CUGG/i2FA/CUGG/i2FA/CU 3′
inhibition of m^6A levels: 50%
